{"source": "PubChem BioAssay (NCI)", "note": "“And” between values parts separate entries of the source, which are not always exact repeats. Equal entries are not always repeated. The entries are a selection whose mix differs from that of the whole data set.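 How to read the values: 0–100, growth inhibition (40 = 60% inhibited); 0, no net growth; -100 to 0, cell death (-40 = 40% of starting cells died; -100 = all dead).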 The source made the active and inactive calls. The calls were made as follows: active = growth percent below 10; inactive = the rest."}
{"tested_on": "MDA-MB-468 breast", "test": "NCI-60 one-dose screen, 48 h (100 = growth as untreated, 0 = no growth, -100 = all killed)", "conditions": "10 µM unless noted"}
{"smiles": "O=P1(N(CCCl)CCCl)OCCCN1CCCl", "note": "(stereo not given)", "growth": "inactive: 104%"}
{"smiles": "N/C(=N/[N+](=O)[O-])N(CCBr)N=O", "growth": "inactive: 106%"}
{"smiles": "CCCC1OP(N)(=O)OCC1CC", "note": "(stereo not given)", "growth": "inactive: 112% and inactive: 92.7%"}
{"smiles": "ClC(Cl)(Cl)C1SCCS1", "growth": "inactive: 121%"}
{"smiles": "O=[N+]([O-])c1ccc(-c2cc([N+](=O)[O-])c(O)c([N+](=O)[O-])c2)cc1", "growth": "inactive: 102% and inactive: 105%"}
{"smiles": "Cc1ccc(Sc2ccc([N+](=O)[O-])cc2[N+](=O)[O-])c([N+](=O)[O-])c1", "growth": "inactive: 31%"}
{"smiles": "CN(C)P(=O)(N(C)C)n1c(Nc2ccccc2)nnc1-c1ccccc1", "growth": "inactive: 96.6%"}
{"smiles": "O=C(O)COc1ccc([As](=O)(O)O)cc1[N+](=O)[O-]", "growth": "inactive: 89.5%"}
{"smiles": "Cc1cccc(Nc2c([N+](=O)[O-])cc([N+](=O)[O-])cc2[N+](=O)[O-])c1", "growth": "inactive: 71.8%"}
{"smiles": "COP(OC)c1ccc(C)cc1", "growth": "inactive: 121%"}
{"smiles": "Nc1ccc([As](=O)(O)c2ccc([N+](=O)[O-])cc2)cc1", "growth": "inactive: 101%"}
{"smiles": "N#CC(C#N)=C(C#N)N(CCCl)CCCl", "growth": "inactive: 103%"}
{"smiles": "CCN(CCCl)/N=N/c1nc2nc[nH]c(=O)c2[nH]1", "growth": "inactive: 109%"}
{"smiles": "c1cc(-c2nn[nH]n2)ccc1-c1nn[nH]n1", "growth": "inactive: 97.5%"}
{"smiles": "C=NNc1ccc([N+](=O)[O-])cc1[N+](=O)[O-]", "growth": "inactive: 84.3%"}
{"smiles": "CCOP(=S)(OCC)OCC", "growth": "inactive: 116%"}
{"smiles": "O=[As](O)(c1ccc(Cl)cc1)C1CCCCC1O", "note": "(stereo not given)", "growth": "inactive: 84.7%"}
{"smiles": "COP(=O)(OC)N(CCCl)CCCl", "growth": "inactive: 99.2%"}
{"smiles": "S=P1(S)SC(Nc2ccccc2)CN1c1ccccc1", "note": "(stereo not given)", "growth": "inactive: 110%"}
{"smiles": "CCN(CC)CCOC(=O)C(O)(c1cccc(OC)c1OC)c1cccc(OC)c1OC", "growth": "inactive: 107%"}
{"smiles": "CC(Cl)CN(CC(C)Cl)C(=O)c1ccccc1", "note": "(stereo not given)", "growth": "inactive: 103%"}
{"smiles": "O=[As](O)(c1ccccc1Br)c1ccccc1Br", "growth": "inactive: 105%"}
{"smiles": "OP1OCCO1", "growth": "inactive: 107%"}
{"smiles": "O=C(CCC(=O)Oc1c(Cl)cc([N+](=O)[O-])cc1[N+](=O)[O-])Oc1c(Cl)cc([N+](=O)[O-])cc1[N+](=O)[O-]", "growth": "inactive: 102%"}
{"smiles": "CC1(CCC2(C)N=C(NN=C(CCl)CCl)SP2(=O)Nc2ncccn2)N=C(NN=C(CCl)CCl)SP1(=O)Nc1ncccn1", "note": "(stereo not given)", "growth": "inactive: 95.7% [100 µM]"}
{"smiles": "O=[N+]([O-])N=C1NCCN1", "growth": "inactive: 98.3% and inactive: 100%"}
{"smiles": "OC(CNCCCl)C(O)C(O)C(O)CNCCCl", "note": "(stereo not given)", "growth": "inactive: 96.5%"}
{"smiles": "C=CCOP(O)OCC=C", "growth": "inactive: 105%"}
{"smiles": "CCOC(=O)N1CCN(CCCl)CC1", "growth": "inactive: 94%"}
{"smiles": "CN(C)P(=O)(Nc1ccccn1)N(C)C", "growth": "inactive: 103%"}
{"smiles": "S=C(Nc1ccccc1)N(CCCl)CCCl", "growth": "inactive: 106%"}
{"smiles": "NCCNCCCl", "growth": "inactive: 102%"}
{"smiles": "ClCCN1c2ccccc2Oc2ccccc21", "growth": "inactive: 106%"}
{"smiles": "O=S1(=O)CC(Sc2ccccc2)[C@@H](Cl)C1", "note": "(stereo not given in full)", "growth": "inactive: 103%"}
{"smiles": "CCN(CC)C(=O)Oc1ccc(/C=N/NC(N)=S)nc1", "growth": "inactive: 86.5%"}
